# System: NURR1::H2B-GFP sorted neurons
# Test: TNFα / adalimumab treatment of day 25 NURR1::H2B-GFP sorted dopamine neurons in vitro (immunofluorescence, western blot, qRT-PCR)
# Format: cell-based, human
# Method: hESC differentiation toward DA neurons. Midbrain dopaminergic neuron differentiation was performed using H9 hESCs, which include Nurr1::GFP. hESCs were grown on VTN-N (Thermo Fisher Scientific)-coated 6-well plates in E8-essential medium. Cells were maintained at 37° C., 5% CO2. hESCs were differentiated with an optimized protocol from a previously reported study (Kim et al., 2021, Cell Stem Cell February 4; 28 (2): 343-355.c5; Riessland et al., 2019, Cell Stem Cell. October 3; 25 (4): 514-530.c8). At day 25 of differentiation from hPSCs iCas9/NURR1::GFP hPSC lines containing sgRNA-pool libraries and sgRNA for dTomato and p53 hPSCs, GFP and dTomato expressed dopamine neurons were sorted using flow cytometry associated cell sorting (FACS). The sorted hPSCs were either injected into mice or cultured for subsequent experiments until use. […]
# RNA extraction and Real time quantitative reverse transcription-PCR (gRT-PCR). […] Delta-delta-cycle threshold (AACT) was determined relative to GAPDH levels and normalized to control samples. […]
# Protein isolation and western-blot analysis. […] Supernatant was collected upon 15 minutes centrifugation >15,000 rpm at 4° C. and protein concentration was measured using Precision Red Advanced Protein Assay (Cytoskeleton). […]
substance,measurement,setting,value
TNFα: proinflammatory cytokine applied to cultured dopamine neurons as stimulus,p53 and p53 downstream genes p21 and PUMA mRNA,"TNFα exposure, qRT-PCR",upregulated
same,p53 expression in dopamine neurons (co-positive with NFκB-p65),"TNFα treatment, 24 hours, immunofluorescence",increased
